Two compounds from ChEMBL document CHEMBL1135657, “Novel dual inhibitors of AChE and MAO derived from hydroxy aminoindan and phenethylamine as potential treatment for Alzheimer's disease” (J Med Chem, 2002) can be followed below.

Protein sequences, listed by entry. Tags and fused reporters are not part of them. Lines headed by an entry give the natural chain unless they say otherwise; changes in a name come on top.
UniProt P21396, whole entry: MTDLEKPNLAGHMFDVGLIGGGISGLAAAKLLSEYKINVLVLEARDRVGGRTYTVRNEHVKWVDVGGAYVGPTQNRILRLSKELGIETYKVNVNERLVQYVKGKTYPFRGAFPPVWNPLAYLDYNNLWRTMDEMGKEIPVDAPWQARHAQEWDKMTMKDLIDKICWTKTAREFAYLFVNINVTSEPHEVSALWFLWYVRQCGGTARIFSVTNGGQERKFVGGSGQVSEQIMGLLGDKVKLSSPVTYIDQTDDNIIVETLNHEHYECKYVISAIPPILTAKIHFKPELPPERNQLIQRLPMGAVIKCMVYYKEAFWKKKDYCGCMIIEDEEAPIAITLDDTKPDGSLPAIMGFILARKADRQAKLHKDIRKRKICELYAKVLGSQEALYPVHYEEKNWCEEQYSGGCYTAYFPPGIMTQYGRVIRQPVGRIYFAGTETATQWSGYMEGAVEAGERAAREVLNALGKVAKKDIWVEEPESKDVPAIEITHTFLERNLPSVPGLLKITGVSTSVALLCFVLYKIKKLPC
UniProt P22303: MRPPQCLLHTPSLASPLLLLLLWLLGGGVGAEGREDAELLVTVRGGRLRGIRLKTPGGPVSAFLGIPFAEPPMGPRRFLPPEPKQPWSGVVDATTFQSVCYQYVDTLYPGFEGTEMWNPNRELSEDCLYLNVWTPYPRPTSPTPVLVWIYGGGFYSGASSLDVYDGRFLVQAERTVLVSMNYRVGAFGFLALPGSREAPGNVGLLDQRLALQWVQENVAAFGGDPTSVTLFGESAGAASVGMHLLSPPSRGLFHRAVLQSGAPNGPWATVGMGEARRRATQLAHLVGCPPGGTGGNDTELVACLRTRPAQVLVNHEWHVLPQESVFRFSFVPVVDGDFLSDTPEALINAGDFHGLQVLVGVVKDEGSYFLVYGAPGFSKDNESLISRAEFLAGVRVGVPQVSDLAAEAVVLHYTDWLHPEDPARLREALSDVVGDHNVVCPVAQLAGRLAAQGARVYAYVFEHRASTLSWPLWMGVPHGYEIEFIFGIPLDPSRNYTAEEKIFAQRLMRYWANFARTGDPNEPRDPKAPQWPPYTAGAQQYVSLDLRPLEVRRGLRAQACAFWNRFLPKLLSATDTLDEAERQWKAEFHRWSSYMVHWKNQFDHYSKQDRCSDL

The target of assay [1] is Amine oxidase [flavin-containing] A (Rattus norvegicus, UniProt P21396). In words: In vitro inhibitory concentration against Monoamine oxidase A of rat brain homogenates. The assay is classed as tissue-based.
The next assay has as its target Acetylcholinesterase (Homo sapiens, UniProt P22303).

By IC50 is commonly meant the point on the concentration scale where inhibition reaches its midpoint.

For `CN(C)C(=O)Oc1ccc2c(c1)C(N(C)C)CC2` (configuration not stated), the IC50 in assay [1] is 1000 µM.

In turn, `C#CCN(C)C1CCc2cccc(OC(=O)N(C)C)c21` (configuration not stated) returned an IC50 against Acetylcholinesterase of 7 µM.
